Measured values taken from article PMC3738572, “Improved Bone Morphogenetic Protein-2 Retention in an Injectable Collagen Matrix Using Bifunctional Peptides” (PLoS ONE, 2013).
Values joined by “and” are separate entries in the source; they are usually repeats but may differ in a detail not shown here. Identical values can stand only once.

What was measured:
ectopic bone formation = experiment: In vivo ectopic bone formation study; set-up: species or system rat
Procedure: The stock fibrillar collagen (4%) was diluted in PBS containing rhBMP-2 with or without the collagen-BMP bifunctional peptide, to generate a final collagen wt% of 1.5%. The amount of BMP-2 and peptide were optimized using pilot experiments in vivo such that 200 µl of the injected collagen gel contained 2 µg of BMP-2 and a 50-fold molar excess of the peptide.
Male Sprague Dawley rats (150–175 g) were obtained from […], Charles River Laboratories (Raleigh, NC) and acclimated prior to surgery. The surgery was performed under general anesthesia by weight-adapted intraperitoneal injection of Xylazine 2% (Medistar; 12 mg/kg body weight) and Ketamine hydrochloride (Ketaset; 100 mg/mL; 80 mg/kg body weight). The thorax and abdomen were shaved and scrubbed with Betadine and alcohol. Using aseptic technique, two 5 mm incisions were made at the midline so that two subcutaneous pouches were prepared by blunt dissection. Collagen gel (200 µl) containing 2 µg rhBMP-2 with or without collagen-BMP bifunctional peptide (BC-1) was injected into the left or the right side of the subcutaneous region. Each rat received two injections and a total of 20 animals were used in the study. The BMP-2 dose (2 μg) used in this experiment had been determined from preliminary experiments (data not shown). In those experiments, rats were implanted with collagen gel containing either 1 or 5 μg of BMP-2.
The sites containing the injected material were explanted at two weeks and fixed in 10% neutral buffered formalin. The samples were placed in Formical 2000 decalcifier (American Mastertech) for 24 hours followed by Cal-arrest neutralizing solution for one hour. The tissue samples were processed in a Thermo-Electron, Shandon Excelsior Automated Tissue Processor for 14 hours. The process includes additional fixation in 10% buffered neutral formalin, dehydration through an ethanol gradient, and clearing with xylene at 40°C. Tissue was then embedded on a Leica EF 1140 H tissue embedding center in paraffin blocks for sectioning. Paraffin blocks were sectioned at 5 microns on a Reichert-Jung RM2065 microtome using Accu-Edge High Profile disposable stainless steel microtome blades. Three serial sections at intervals of 30 microns were obtained and placed on Super-frost Plus slides for hematoxylin and eosin staining (H&E). Staining was performed using a Sakura DRS-601 automatic slide stainer with a regressive Harris hematoxylin and Eosin Y Alcoholic for histological and morphological examination.
Histological sections were scored based on three criteria: Bone Cross-Sectional Area, Bone Maturity and Cellular Activity. Each segment was scored based on a 0–4 point scale by two observers (blinded to the study) who evaluated the entire implant under 10× magnification.

[1] = biological target: T1, rhBMP-2 binding to injectable collagen gel (Homo sapiens, UniProt P12643); experiment: Injectable collagen gel binding assay; details: no peptide; rhBMP-2 0.0017 to 100 nM, 1 h on collagen gel at RT; anti-BMP antibody, p-NPP, 405 nm
T1 construct: purchased R&D Systems 355-BM/CF
T1 sequence (P12643 283-396): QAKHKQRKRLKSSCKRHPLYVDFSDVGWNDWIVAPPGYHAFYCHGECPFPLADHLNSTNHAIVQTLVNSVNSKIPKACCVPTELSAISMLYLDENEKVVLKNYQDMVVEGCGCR
Procedure: The injectable collagen gel (0.1 mL) was aliquoted into a polypropylene plate. The plate was blocked with 150 µl of 1% BSA in TBS for 30 min. After spinning for 2 min, the supernatant was removed without disrupting the collagen gel. The bifunctional peptide (30 μM) was mixed with rhBMP-2 (0.0017 to100 nM) in Binding Buffer (125 mM glutamic acid, 10% sucrose, 12.5% glycine, 10% polysorbate 80, 5 M NaCl) for 30 min with gentle agitation. The peptide: rhBMP-2 complex (50 μL) was then added to the collagen gel and incubated at room temperature for 1 h with gentle agitation. The collagen gel was washed three times with TBST and rhBMP-2 was detected with an anti-BMP antibody (R&D Systems MAB3552). The wells were then washed, and an alkaline phosphatase labeled goat anti-mouse secondary antibody was added. After incubation and washing, binding was measured using the chromogenic reagent p-NPP, and absorbance was read at 405 nm.

[2] = individual samples, one table row per sample, average of two blinded observers, rat subcutaneous, 200 µl 1.5% collagen gel, 2 µg rhBMP-2, 2 weeks, H&E, scale 0–4
[3] = rat ectopic model, 2 µg rhBMP-2 in collagen gel, 2 weeks

rhBMP-2: recombinant human Bone Morphogenetic Protein-2; R&D Systems 355-BM/CF in vitro, INFUSE (Medtronic) in vivo
Bone area, histology score (ectopic bone formation; [2]): 0.0 and 1.1 (1–10% of Implant Shows Evidence of Bone Formation)
Bone maturity, histology score (ectopic bone formation; [2]): 0.0 and 1.0
Osteogenic Cellular activity, histology score (ectopic bone formation; [2]): 0.5 and 1.8 and 1.5 and 0.8 and 1.3
Maturity of the newly formed bone (in words) (ectopic bone formation; [3]): immature/unorganized
Part of the implant covered with new bone (ectopic bone formation; [3]): no new bone was detected
Bone formation in preliminary experiments (ectopic bone formation; rats implanted with collagen gel containing 1 or 5 μg of BMP-2, with or without peptide, data not shown): bone formation at the 5 μg dose but not at the 1 μg dose
EC50 [1]: 5.5 nM
